These results are taken from patent US20180207148A1 (priority 2015, published 2018).

For this data set the following is noted: following 2 consecutive daily doses of 60, 90, or 150 mg/m^2.

Molecules are shown by their SMILES.

With `CC(=O)O[C@H]1C(=O)[C@@]2(C)[C@H]([C@H](OC(=O)c3ccccc3)[C@]3(O)C[C@H](OC(=O)[C@H](O)[C@@H](NC(=O)c4ccccc4)c4ccccc4)C(C)=C1C3(C)C)[C@]1(OC(C)=O)CO[C@@H]1C[C@@H]2O` [Paclitaxel, 5,20-Epoxy-1,2,4,7,10-13-hexahydroxytax-11-en-9-one-4,10-diacetate 2-benzoate 13-ester with (2R,3S)—N-benzoyl-3-phenylisoserine], the “accumulation in paclitaxel Cmax and AUC” value was “minimal to no accumulation”.
